# Laboratory results reported in patent US9907800B2, “Kinase inhibitors and method of treating cancer” (University Health Network, priority 2010, dated 2018).
# Chains of the proteins cited; added tags and fusions are not shown. Residues count along the entry.
# UniProt Q16620, 32-822: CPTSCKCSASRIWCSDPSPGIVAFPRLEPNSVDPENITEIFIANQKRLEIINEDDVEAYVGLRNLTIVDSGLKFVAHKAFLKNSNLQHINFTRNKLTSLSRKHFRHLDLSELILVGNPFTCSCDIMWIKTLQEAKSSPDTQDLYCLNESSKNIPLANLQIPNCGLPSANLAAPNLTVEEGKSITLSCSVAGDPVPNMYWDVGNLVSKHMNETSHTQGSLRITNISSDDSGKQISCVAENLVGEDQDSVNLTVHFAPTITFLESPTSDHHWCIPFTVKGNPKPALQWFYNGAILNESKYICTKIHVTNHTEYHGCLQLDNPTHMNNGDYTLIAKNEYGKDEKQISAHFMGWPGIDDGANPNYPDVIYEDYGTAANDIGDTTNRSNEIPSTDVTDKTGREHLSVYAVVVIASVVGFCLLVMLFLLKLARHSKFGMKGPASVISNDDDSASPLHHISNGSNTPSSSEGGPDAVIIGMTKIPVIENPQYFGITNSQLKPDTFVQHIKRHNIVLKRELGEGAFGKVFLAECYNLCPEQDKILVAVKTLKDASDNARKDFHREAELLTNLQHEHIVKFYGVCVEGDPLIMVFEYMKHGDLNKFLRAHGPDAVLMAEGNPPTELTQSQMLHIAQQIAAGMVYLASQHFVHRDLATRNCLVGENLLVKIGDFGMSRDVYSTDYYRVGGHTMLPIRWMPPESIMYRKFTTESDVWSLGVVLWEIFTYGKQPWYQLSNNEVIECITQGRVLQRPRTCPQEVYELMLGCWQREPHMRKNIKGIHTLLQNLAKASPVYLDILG
# Counter-ions that a name gives are not always drawn.
# Biological target: TrkB (Homo sapiens (Human), UniProt Q16620)
# Experiment: biochemical
# Conditions: read-out: % Inhibition @ 0.1 μM
compound,measurement,value
"COc1ccc2c(c1)[C@]1(C[C@H]1c1ccc3c(-c4ccc(N5CCN(C)CC5)cc4)n[nH]c3c1)C(=O)N2 [Example A39, (1R,2S)-5′-methoxy-2-(3-(4-(4-methylpiperazin-1-yl)phenyl)-1H-indazol-6-yl)spiro[cyclopropane-1,3′-indolin]-2′-one hydrochloride]",inhibition at 0.1 µM,70%
